From article PMC10262665 (Science (New York, N.Y.), 2023)

Tests used:
[1] = test system: H9c2 rat cardiomyoblasts; experiment: 13C-lactate metabolic tracing into pyruvate; type: cell-based; details: dimethylated fatty acid analogs
[2] = test system: H9c2 rat cardiomyoblasts; experiment: 13C-glucose metabolic tracing into lactate; type: cell-based; details: dimethylated fatty acid analogs

CCCCCCCCCCCCCCC(C)(C)C(=O)O [DiMePal, 2,2-dimethyl-palmitate, reference compound]
13C-lactate tracing [1]: inhibited | 13C-glucose tracing [2]: inhibited
